# Test results from PubChem BioAssay AID620 (Sanford-Burnham Center for Chemical Genomics, 2007).
# The entries are a selection whose mix differs from that of the whole data set. Some tests of the compounds listed are not included; inactive here does not mean inactive elsewhere. The source made the active and inactive calls. Rule as the data show it: active = cytotoxicity above about 50%; inactive = the rest.
# Assay: HT1080 cell viability loss – fluorescence readout (AID 620);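 also: cells exposed to compound overnight then 4 h with Alamar Blue; 0% = vehicle DMSO and 100% = killing control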
# Conditions: at 10 µM, active compounds read high
row,SMILES,cytotoxicity
1,CN(C)c1cccc(C(=O)NCC2(N(C)C)CCCCC2)c1,inactive: -1.5%
2,O=C(OC1CN2CCC1CC2)C(CO)(c1ccccc1)c1ccccc1 (configuration not stated),inactive: -7.7%
